{"sequences": {"note": "Protein sequences, listed by entry. Tags and fused reporters are not part of them. Residues count along the entry.", "UniProt P15056, 2-766 V600E limits assumed": "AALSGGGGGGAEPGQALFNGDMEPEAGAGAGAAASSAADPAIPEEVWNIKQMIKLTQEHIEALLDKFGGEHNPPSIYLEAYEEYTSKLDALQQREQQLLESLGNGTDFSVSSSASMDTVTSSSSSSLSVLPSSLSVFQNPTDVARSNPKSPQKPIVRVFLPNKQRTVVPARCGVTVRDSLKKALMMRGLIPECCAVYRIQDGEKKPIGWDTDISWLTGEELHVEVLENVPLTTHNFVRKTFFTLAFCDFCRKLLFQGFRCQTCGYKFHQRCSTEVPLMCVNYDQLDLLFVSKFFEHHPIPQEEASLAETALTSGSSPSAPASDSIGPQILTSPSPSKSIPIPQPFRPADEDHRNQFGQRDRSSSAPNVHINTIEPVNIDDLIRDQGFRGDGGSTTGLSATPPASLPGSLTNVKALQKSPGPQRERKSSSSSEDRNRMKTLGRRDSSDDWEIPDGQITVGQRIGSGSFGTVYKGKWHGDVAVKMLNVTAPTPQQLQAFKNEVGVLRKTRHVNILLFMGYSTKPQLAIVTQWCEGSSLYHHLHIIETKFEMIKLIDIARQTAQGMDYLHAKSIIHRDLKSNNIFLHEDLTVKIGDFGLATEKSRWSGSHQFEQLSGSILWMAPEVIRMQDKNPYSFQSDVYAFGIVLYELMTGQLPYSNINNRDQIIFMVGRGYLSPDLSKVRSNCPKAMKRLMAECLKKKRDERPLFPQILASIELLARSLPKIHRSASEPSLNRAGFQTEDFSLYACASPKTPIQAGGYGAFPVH"}, "source": "ChEMBL document CHEMBL1667830", "about": "“Non-oxime inhibitors of B-Raf(V600E) kinase” (Bioorg Med Chem Lett, 2011)", "target": "Serine/threonine-protein kinase B-raf (Homo sapiens, UniProt P15056, V600E)", "test": "Inhibition of B-Raf V600E mutant", "note": "pIC50: −log10 of the molar value."}
{"smiles": "O=C(Nc1ccncn1)c1oc2cnccc2c1Nc1ccc2c(O)cccc2c1", "values": [{"measurement": "pIC50", "value": 8.85}]}
